Experimental data as given in patent publication US20250361280A1 (Protagonist Therapeutics, Inc., priority 2022, published 2025).

Legend:
ferroportin [1] = target: T1, ferroportin (Homo sapiens, UniProt Q9NP59); assay: T47D internalization assay in presence of mouse serum albumin; format: cell-based; parameters: a human breast carcinoma adherent cell line which endogenously expresses ferroportin; host or cells: T47D; settings: T47D cells, 0.5% mouse serum albumin, 1 hr incubation
T1 sequence (Q9NP59 1-571): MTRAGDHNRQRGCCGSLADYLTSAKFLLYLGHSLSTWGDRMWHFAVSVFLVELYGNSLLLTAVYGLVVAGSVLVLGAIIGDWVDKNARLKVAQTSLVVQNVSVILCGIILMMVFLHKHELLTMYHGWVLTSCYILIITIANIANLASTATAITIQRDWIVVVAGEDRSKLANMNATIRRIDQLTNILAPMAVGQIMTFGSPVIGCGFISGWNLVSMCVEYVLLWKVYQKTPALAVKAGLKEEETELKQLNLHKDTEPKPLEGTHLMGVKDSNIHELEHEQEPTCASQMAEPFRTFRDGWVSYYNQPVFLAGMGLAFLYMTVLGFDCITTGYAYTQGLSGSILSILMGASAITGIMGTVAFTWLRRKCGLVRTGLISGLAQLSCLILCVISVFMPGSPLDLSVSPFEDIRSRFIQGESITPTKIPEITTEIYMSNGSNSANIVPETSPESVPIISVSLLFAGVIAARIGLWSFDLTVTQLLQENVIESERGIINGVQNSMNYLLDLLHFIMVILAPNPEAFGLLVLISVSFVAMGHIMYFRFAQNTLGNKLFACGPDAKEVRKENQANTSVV
Method in brief: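 T47D cells exposed 1 h to 10-point peptide dilutions (top ~5 μM) preincubated 30 min with 0.5% mouse serum albumin. Then 200 nM AF647-labelled ferroportin-binding detection peptide for 2 h. Flow cytometry MFI of live singlets, IC50 by 4-parameter fit.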

ferroportin [2] = target: T1, ferroportin; assay: FPN internalization assay (FPN activity assay), loss of ferroportin-GFP fluorescence; format: cell-based
[3] = Table 1D, read-out: IC50: T47D MSA
[4] = Table 1D, HEK293 cells stably expressing ferroportin-GFP, compound at least 18 hours, read-out: IC50: FPN

| SMILES | IC50 (ferroportin [1]; IC50: T47D MSA (nM, Table 1D)) | IC50 (ferroportin [2]) | IC50 (ferroportin [1]; [3]) | IC50 (ferroportin [2]; [4]) |
| --- | --- | --- | --- | --- |
| CCCCCCCCCCCCCCCC(=O)NCC[N+](C)(C)CC(=O)NCCOCCOCC(=O)NCCOCCOCC(=O)NCCCC[C@H](NC(=O)[C@@H]1CCCN1C(=O)[C@@H](NC(=O)[C@H](Cc1c[nH]cn1)NC(=O)[C@@H](NC(=O)[C@H](CCC(=O)O)NC(=O)CC(C)C)[C@@H](C)O)C(c1ccccc1)c1ccccc1)C(=O)NCCc1nc2ccccc2[nH]1 [compound 123] | 0.1 to 10 nM | 1 to 30 nM | – | – |
| CCCCCCCCCCCCCCCC(=O)NCC[N+](C)(C)CC(=O)NCCOCCOCC(=O)NCCOCCOCC(=O)NCCCC[C@H](NC(=O)[C@@H]1C[C@@H]2CN1C(=O)[C@H](C(c1ccccc1)c1ccccc1)NC(=O)[C@H](Cc1c[nH]cn1)NC(=O)[C@@H]1C[C@@H](CN1C(=O)[C@H](CCC(=O)O)NC(=O)CC(C)C)SS2)C(=O)NCCCCCc1ccccc1 [compound 124] | – | – | 0.1 to 10 nM | 1 to 30 nM |
| CCCCCCCC/C=C\CCCCCCCC(=O)N[C@@H](CCC(=O)NCCOCCOCC(=O)NCCOCCOCC(=O)NCCCC[C@H](NC(=O)[C@@H]1CSSC[C@H](NC(=O)[C@H](CCC(=O)O)NC(=O)CC(C)C)C(=O)N[C@@H](Cc2c[nH]cn2)C(=O)N[C@@H](C(c2ccccc2)c2ccccc2)C(=O)N1)C(=O)NCCCCc1ccccc1)C(=O)O [compound 127] | – | – | 10 to 100 nM | 30 to 100 nM |
| CC(C)CC(=O)N[C@@H](CCC(=O)O)C(=O)N[C@H](C(=O)N[C@@H](Cc1c[nH]cn1)C(=O)N[C@H](C(=O)N1CCC[C@H]1C(=O)N[C@@H](CCCCNC(=O)COCCOCCNC(=O)COCCOCCNC(=O)CC[C@H](NC(=O)CC[C@@H](C)[C@H]1CC[C@H]2[C@@H]3CC[C@@H]4C[C@H](O)CC[C@]4(C)[C@H]3C[C@H](O)[C@]12C)C(=O)O)C(=O)NCCCCc1ccccc1)C(c1ccccc1)c1ccccc1)[C@@H](C)O [compound 128] | 10 to 100 nM | – | – | 1 to 30 nM |
| CC(C)CC(=O)N[C@@H](CCC(=O)O)C(=O)N[C@H](C(=O)N[C@@H](Cc1c[nH]cn1)C(=O)N[C@H](C(=O)N1CCC[C@H]1C(=O)N[C@@H](CCCCNC(=O)COCCOCCNC(=O)COCCOCCNC(=O)[C@H](CN)NC(=O)CCCc1ccc(I)cc1)C(=O)NCCCCc1ccccc1)C(c1ccccc1)c1ccccc1)[C@@H](C)O [compound 129] | – | – | 10 to 100 nM | 1 to 30 nM |
| CCCCCCCC/C=C\CCCCCCCC(=O)N[C@@H](CN)C(=O)NCCOCCOCC(=O)NCCOCCOCC(=O)NCCCC[C@H](NC(=O)[C@@H]1CCCN1C(=O)[C@@H](NC(=O)[C@H](Cc1c[nH]cn1)NC(=O)[C@@H](NC(=O)[C@H](CCC(=O)O)NC(=O)CC(C)C)[C@@H](C)O)C(c1ccccc1)c1ccccc1)C(=O)NCCCCc1ccccc1 [compound 130] | – | – | 0.1 to 10 nM | 1 to 30 nM |
| CC(C)CC(=O)N[C@@H](CCC(=O)O)C(=O)N[C@H](C(=O)N[C@@H](Cc1c[nH]cn1)C(=O)N[C@H](C(=O)N1CCC[C@H]1C(=O)N[C@H](CCCCN)C(=O)N(CCC(=O)O)C(CC(C)C)C(N)=O)C(c1ccccc1)c1ccccc1)[C@@H](C)O (stereo partly drawn) [compound 139] | – | – | > 500 nM | > 500 nM |
| CC(C)CC(=O)N[C@@H](CCC(=O)O)C(=O)N[C@H](C(=O)N[C@@H](Cc1c[nH]cn1)C(=O)N[C@H](C(=O)N1CCC[C@H]1C(=O)N[C@H](CCCCN)C(=O)N(CCC(=O)O)C(CCc1ccccc1)C(N)=O)C(c1ccccc1)c1ccccc1)[C@@H](C)O (stereo partly drawn) [compound 140] | > 500 nM | > 500 nM | – | – |
| CC(C)CC(=O)N[C@@H](CCC(=O)O)C(=O)N[C@H](C(=O)N[C@@H](Cc1c[nH]cn1)C(=O)N[C@H](C(=O)N1CCC[C@H]1C(=O)N[C@H](CCCCN)C(=O)N(CCC(=O)O)C(CCCCCCC(=O)O)C(N)=O)C(c1ccccc1)c1ccccc1)[C@@H](C)O (stereo partly drawn) [compound 141] | – | – | > 500 nM | > 500 nM |
| CC(C)CC(=O)N[C@@H](CCC(=O)O)C(=O)N[C@H](C(=O)N[C@@H](Cc1c[nH]cn1)C(=O)N[C@H](C(=O)N1CCC[C@H]1C(=O)N[C@H](CCCCN)C(=O)N(CCCN)C(CCCCCCC(=O)O)C(N)=O)C(c1ccccc1)c1ccccc1)[C@@H](C)O (stereo partly drawn) [compound 142] | – | – | 100 to 500 nM | > 500 nM |
| CC(C)CC(=O)N[C@@H](CCC(=O)O)C(=O)N[C@H](C(=O)N[C@@H](Cc1c[nH]cn1)C(=O)N[C@H](C(=O)N1CCC[C@H]1C(=O)N[C@H](CCCCN)C(=O)N(Cc1ccccc1)C(CC(C)C)C(=O)O)C(c1ccccc1)c1ccccc1)[C@@H](C)O (stereo partly drawn) [compound 144] | – | – | > 500 nM | > 500 nM |
| CC(C)CC(=O)N[C@@H](CCC(=O)O)C(=O)N[C@H](C(=O)N[C@@H](Cc1c[nH]cn1)C(=O)N[C@H](C(=O)N1CCC[C@H]1C(=O)N[C@H](CCCCN)C(=O)N(Cc1ccccc1)C(CC(C)C)C(N)=O)C(c1ccccc1)c1ccccc1)[C@@H](C)O (stereo partly drawn) [compound 145] | – | – | 100 to 500 nM | 30 to 100 nM |
| CC(C)CC(=O)N[C@@H](CCC(=O)O)C(=O)N[C@H](C(=O)N[C@@H](Cc1c[nH]cn1)C(=O)N[C@H](C(=O)N1CCC[C@H]1C(=O)N[C@H](CCCCN)C(=O)N(Cc1ccccc1)C(CCc1ccccc1)C(N)=O)C(c1ccccc1)c1ccccc1)[C@@H](C)O (stereo partly drawn) [compound 147] | 100 to 500 nM | 1 to 30 nM | – | – |
| CC(C)CC(=O)N[C@@H](CCC(=O)O)C(=O)N[C@H](C(=O)N[C@@H](Cc1c[nH]cn1)C(=O)N[C@H](C(=O)N1CCC[C@H]1C(=O)N[C@H](CCCCN)C(=O)N(Cc1ccccc1)C(CCCCCCC(=O)O)C(=O)O)C(c1ccccc1)c1ccccc1)[C@@H](C)O (stereo partly drawn) [compound 148] | > 500 nM | > 500 nM | – | – |
| CC(C)CC(=O)N[C@@H](CCC(=O)O)C(=O)N[C@H](C(=O)N[C@@H](Cc1c[nH]cn1)C(=O)N[C@H](C(=O)N1CCC[C@H]1C(=O)N[C@H](CCCCN)C(=O)N(Cc1ccccc1)C(CCCCCCC(=O)O)C(N)=O)C(c1ccccc1)c1ccccc1)[C@@H](C)O (stereo partly drawn) [compound 149] | > 500 nM | > 500 nM | – | – |
| CC(C)CC(=O)N[C@@H](CCC(=O)O)C(=O)N[C@H](C(=O)N[C@@H](Cc1c[nH]cn1)C(=O)N[C@H](C(=O)N1CCC[C@H]1C(=O)N[C@H](CCCCN)C(=O)N(CC1CC1)C(CC(C)C)C(=O)O)C(c1ccccc1)c1ccccc1)[C@@H](C)O (stereo partly drawn) [compound 150] | – | – | > 500 nM | > 500 nM |
| CC(C)CC(=O)N[C@@H](CCC(=O)O)C(=O)N[C@H](C(=O)N[C@@H](Cc1c[nH]cn1)C(=O)N[C@H](C(=O)N1CCC[C@H]1C(=O)N[C@H](CCCCN)C(=O)N(CC1CC1)C(CC(C)C)C(N)=O)C(c1ccccc1)c1ccccc1)[C@@H](C)O (stereo partly drawn) [compound 151] | – | – | 100 to 500 nM | 1 to 30 nM |
| CC(C)CC(=O)N[C@@H](CCC(=O)O)C(=O)N[C@H](C(=O)N[C@@H](Cc1c[nH]cn1)C(=O)N[C@H](C(=O)N1CCC[C@H]1C(=O)N[C@H](CCCCN)C(=O)N(CC1CC1)C(CCc1ccccc1)C(=O)O)C(c1ccccc1)c1ccccc1)[C@@H](C)O (stereo partly drawn) [compound 152] | – | – | > 500 nM | 30 to 100 nM |
| CC(C)CC(=O)N[C@@H](CCC(=O)O)C(=O)N[C@H](C(=O)N[C@@H](Cc1c[nH]cn1)C(=O)N[C@H](C(=O)N1CCC[C@H]1C(=O)N[C@H](CCCCN)C(=O)N(CC1CC1)C(CCc1ccccc1)C(N)=O)C(c1ccccc1)c1ccccc1)[C@@H](C)O (stereo partly drawn) [compound 153] | – | – | 100 to 500 nM | 30 to 100 nM |
| CC(C)CC(=O)N[C@@H](CCC(=O)O)C(=O)N[C@H](C(=O)N[C@@H](Cc1c[nH]cn1)C(=O)N[C@H](C(=O)N1CCC[C@H]1C(=O)N[C@H](CCCCN)C(=O)N(CC1CC1)C(CCCCCCC(=O)O)C(=O)O)C(c1ccccc1)c1ccccc1)[C@@H](C)O (stereo partly drawn) [compound 154] | > 500 nM | > 500 nM | – | – |
| CC(C)CC(=O)N[C@@H](CCC(=O)O)C(=O)N[C@H](C(=O)N[C@@H](Cc1c[nH]cn1)C(=O)N[C@H](C(=O)N1CCC[C@H]1C(=O)N[C@H](CCCCN)C(=O)N(CC1CC1)C(CCCCCCC(=O)O)C(N)=O)C(c1ccccc1)c1ccccc1)[C@@H](C)O (stereo partly drawn) [compound 155] | > 500 nM | > 500 nM | – | – |
| CC(C)CC(=O)N[C@@H](CCC(=O)O)C(=O)N[C@H](C(=O)N[C@@H](Cc1c[nH]cn1)C(=O)N[C@H](C(=O)N1CCC[C@H]1C(=O)N[C@@H](CCCCNC(=O)CCCCC[N+](C)(C)C)C(=O)NCCCCc1ccccc1)C(c1ccccc1)c1ccccc1)[C@@H](C)O [compound 156] | – | – | 100 to 500 nM | 30 to 100 nM |
| CC(C)CC(=O)N[C@@H](CCC(=O)O)C(=O)N[C@H](C(=O)N[C@@H](Cc1c[nH]cn1)C(=O)N[C@H](C(=O)N1CCC[C@H]1C(=O)N[C@@H](CNC(=O)[C@H](CCCC[N+](C)(C)C)NC(=O)OCC1c2ccccc2-c2ccccc21)C(=O)NCCCCc1ccccc1)C(c1ccccc1)c1ccccc1)[C@@H](C)O [compound 158] | – | – | > 500 nM | 30 to 100 nM |
| CC(C)CC(=O)N1C[C@@H]2C[C@H]1C(=O)N[C@@H]([C@@H](C)O)C(=O)N[C@@H](Cc1c[nH]cn1)C(=O)N[C@@H](C(c1ccccc1)c1ccccc1)C(=O)N1C[C@@H](C[C@H]1C(=O)N[C@@H](CCCCNC(=O)CCOCCOCC[N+](C)(C)C)C(=O)NCCCCc1ccccc1)SS2 [compound 159] | – | – | > 500 nM | > 500 nM |
